Patent publication US20190224189A1 (priority 2016, published 2019)
Like-named read-outs stand apart in the source and are kept apart here.

Sequences of proteins named here, by UniProt entry; tags and fusion partners are left off. A line that says so, or that is headed by a name, gives the form on record, which may keep a tag or linker. Residues count along the entry.
UniProt P00533, 695-1210 L858R: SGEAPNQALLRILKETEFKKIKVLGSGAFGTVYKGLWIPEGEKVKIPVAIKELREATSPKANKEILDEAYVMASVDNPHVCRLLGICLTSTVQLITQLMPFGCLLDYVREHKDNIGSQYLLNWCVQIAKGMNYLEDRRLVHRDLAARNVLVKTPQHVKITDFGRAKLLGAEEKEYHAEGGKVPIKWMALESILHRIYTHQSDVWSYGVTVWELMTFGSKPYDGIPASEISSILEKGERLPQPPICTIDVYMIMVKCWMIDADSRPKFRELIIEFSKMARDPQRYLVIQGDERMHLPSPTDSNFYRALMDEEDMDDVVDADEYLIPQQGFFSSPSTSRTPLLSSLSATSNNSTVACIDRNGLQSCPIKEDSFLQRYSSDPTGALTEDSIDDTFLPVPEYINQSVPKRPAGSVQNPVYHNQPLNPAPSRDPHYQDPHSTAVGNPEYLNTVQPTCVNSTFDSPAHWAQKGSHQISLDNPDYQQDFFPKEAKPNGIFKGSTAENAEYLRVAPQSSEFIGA
UniProt P00533, 668-1210 limits assumed: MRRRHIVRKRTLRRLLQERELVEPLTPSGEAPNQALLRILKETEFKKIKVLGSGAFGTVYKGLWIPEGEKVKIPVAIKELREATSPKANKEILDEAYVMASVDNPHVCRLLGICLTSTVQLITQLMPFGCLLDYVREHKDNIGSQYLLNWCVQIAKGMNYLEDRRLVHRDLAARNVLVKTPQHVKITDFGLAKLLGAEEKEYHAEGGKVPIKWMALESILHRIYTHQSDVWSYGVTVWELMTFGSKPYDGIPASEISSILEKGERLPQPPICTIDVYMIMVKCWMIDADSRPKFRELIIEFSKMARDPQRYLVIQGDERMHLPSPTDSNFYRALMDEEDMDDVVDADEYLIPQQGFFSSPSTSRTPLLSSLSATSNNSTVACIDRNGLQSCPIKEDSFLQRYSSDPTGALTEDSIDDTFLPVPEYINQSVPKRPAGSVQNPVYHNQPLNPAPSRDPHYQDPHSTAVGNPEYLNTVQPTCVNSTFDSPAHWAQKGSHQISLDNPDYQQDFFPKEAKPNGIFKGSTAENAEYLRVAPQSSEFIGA
UniProt P00533, 695-1210 T790M: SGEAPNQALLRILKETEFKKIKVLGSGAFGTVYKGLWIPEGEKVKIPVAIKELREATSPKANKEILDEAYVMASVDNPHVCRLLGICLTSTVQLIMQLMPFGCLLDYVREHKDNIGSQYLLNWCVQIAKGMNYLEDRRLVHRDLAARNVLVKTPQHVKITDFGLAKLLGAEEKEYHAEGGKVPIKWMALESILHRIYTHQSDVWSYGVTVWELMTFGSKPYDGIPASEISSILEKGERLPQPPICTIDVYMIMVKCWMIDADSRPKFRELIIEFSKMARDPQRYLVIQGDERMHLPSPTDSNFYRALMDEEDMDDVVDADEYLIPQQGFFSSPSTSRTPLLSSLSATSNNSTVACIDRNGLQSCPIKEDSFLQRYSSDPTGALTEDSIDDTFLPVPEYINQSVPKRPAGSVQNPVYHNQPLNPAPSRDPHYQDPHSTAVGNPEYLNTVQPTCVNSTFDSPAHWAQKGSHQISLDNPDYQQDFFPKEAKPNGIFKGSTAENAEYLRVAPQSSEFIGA
UniProt P00533, with tags, fused parts or gaps INS772GNP: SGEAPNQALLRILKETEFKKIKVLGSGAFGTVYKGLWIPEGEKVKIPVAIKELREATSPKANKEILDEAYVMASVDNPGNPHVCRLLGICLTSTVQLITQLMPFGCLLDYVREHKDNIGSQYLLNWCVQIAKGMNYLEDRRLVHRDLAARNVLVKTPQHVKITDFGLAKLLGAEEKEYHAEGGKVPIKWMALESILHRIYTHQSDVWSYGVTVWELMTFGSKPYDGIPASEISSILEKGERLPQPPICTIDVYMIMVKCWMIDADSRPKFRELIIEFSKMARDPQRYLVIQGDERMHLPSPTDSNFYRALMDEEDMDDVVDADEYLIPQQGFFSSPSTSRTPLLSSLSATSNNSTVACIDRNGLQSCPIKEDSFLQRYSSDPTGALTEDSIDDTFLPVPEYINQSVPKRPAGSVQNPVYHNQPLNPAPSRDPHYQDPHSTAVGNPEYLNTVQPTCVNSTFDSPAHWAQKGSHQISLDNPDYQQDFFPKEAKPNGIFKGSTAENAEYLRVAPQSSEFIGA
UniProt P00533, 695-1210 T790M/L858R: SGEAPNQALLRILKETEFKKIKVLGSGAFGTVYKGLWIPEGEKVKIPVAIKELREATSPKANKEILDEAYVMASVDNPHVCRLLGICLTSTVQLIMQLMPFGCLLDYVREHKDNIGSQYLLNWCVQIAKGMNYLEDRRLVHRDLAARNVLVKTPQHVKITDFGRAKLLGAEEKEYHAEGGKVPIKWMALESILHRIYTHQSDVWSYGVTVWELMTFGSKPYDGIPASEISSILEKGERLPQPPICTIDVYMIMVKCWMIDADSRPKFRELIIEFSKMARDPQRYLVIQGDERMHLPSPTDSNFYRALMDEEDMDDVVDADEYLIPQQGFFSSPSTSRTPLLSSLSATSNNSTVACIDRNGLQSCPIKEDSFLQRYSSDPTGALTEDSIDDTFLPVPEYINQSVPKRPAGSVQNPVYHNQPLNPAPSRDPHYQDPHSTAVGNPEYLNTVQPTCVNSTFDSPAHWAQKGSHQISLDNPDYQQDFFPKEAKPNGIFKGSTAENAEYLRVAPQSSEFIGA
UniProt P00533, with tags, fused parts or gaps DEL746-750: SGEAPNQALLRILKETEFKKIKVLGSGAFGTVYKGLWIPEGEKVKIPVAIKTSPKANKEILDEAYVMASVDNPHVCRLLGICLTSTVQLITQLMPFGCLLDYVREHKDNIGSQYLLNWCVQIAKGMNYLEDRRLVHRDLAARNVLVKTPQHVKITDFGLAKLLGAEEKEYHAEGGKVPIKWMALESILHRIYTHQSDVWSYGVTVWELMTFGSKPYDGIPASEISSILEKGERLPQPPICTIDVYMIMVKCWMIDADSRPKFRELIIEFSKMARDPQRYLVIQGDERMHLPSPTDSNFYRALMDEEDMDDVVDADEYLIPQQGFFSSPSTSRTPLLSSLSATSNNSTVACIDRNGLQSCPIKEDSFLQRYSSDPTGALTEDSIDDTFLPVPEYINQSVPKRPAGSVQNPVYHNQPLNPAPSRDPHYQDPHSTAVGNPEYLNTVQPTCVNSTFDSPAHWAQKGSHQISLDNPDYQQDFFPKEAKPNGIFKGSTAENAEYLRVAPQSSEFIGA
UniProt P00533, with tags, fused parts or gaps DEL746-750/T790M: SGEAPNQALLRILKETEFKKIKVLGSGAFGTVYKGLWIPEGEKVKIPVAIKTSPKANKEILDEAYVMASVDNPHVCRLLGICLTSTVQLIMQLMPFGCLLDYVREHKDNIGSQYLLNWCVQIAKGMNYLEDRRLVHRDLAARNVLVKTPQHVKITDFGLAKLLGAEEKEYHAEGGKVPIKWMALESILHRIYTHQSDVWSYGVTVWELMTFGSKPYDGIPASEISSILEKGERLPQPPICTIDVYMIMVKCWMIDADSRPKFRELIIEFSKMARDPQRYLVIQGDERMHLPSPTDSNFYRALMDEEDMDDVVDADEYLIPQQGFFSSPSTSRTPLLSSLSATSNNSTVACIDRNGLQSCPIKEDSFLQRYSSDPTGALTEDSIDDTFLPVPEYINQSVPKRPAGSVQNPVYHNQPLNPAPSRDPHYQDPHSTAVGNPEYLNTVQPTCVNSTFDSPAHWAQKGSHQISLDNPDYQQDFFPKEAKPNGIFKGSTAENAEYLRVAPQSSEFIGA

What was measured:
Assay in all cases: biochemical
EGFR L858R = EGFR L858R (Homo sapiens, UniProt P00533, L858R)
EGFR WT [1] = target: T1, EGFR WT (Homo sapiens, UniProt P00533)
EGFR A763_Y764insFHEA = EGFR A763_Y764insFHEA (Homo sapiens, UniProt P00533, INS763FHEA)
EGFR T790M = EGFR T790M (Homo sapiens, UniProt P00533, T790M)
EGFR WT [2] = target: T1, EGFR WT; remark: listed apart in the source
EGFR D770_N771insNPG = EGFR D770_N771insNPG (Homo sapiens, UniProt P00533, INS772GNP)
EGFR T790M + L858R = EGFR T790M + L858R (Homo sapiens, UniProt P00533, L858R/T790M)
EGFR Exon19 Del = EGFR Exon19 Del (Homo sapiens, UniProt P00533, DEL746-750)
EGFR T790M + Exon19 Del = EGFR T790M + Exon19 Del (Homo sapiens, UniProt P00533, DEL746-750/T790M)

## CCOc1cc2ncc(C#N)c(Nc3ccc(OCc4ccccn4)c(Cl)c3)c2cc1NC(=O)/C=C/[C@H]1CCCN1C [Compound A, (E)-N-[4-[[3-chloro-4-(2-pyridylmethoxy)phenyl]amino]-3-cyano-7-ethoxy-6-quinolyl]-3-[(2R)-1-methylpyrrolidin-2-yl]prop-2-enamide]
EGFR L858R
  IC50: 25.1 nM
EGFR WT [1]
  IC50: 0.545 nM
EGFR A763_Y764insFHEA
  IC50: 0.148 nM
EGFR T790M
  IC50: 135 nM
EGFR WT [2]
  IC50: 42.3 nM
EGFR D770_N771insNPG
  IC50: 0.435 nM
EGFR T790M + L858R
  IC50: 242 nM
EGFR Exon19 Del
  IC50: 126 nM
EGFR T790M + Exon19 Del
  IC50: 1530 nM
